In one data set the target is human wt P2X4 receptor (Homo sapiens, UniProt Q99571). As to the kind of experiment: ATP-induced calcium influx assay, human wt P2X4 receptor in 1321N1 astrocytoma cells. The class given is cell-based. To be noted: read-out: IC50 ± SEM, wt P2X4, 1321N1 astrocytoma cells, inhibition vs ATP at its EC80, 30 min preincubation.
Data set [1] deals with human P2X4-E307T receptor mutant (Homo sapiens, UniProt Q99571, E307T). As to the kind of experiment: ATP-induced calcium influx assay, P2X4-E307T mutant in 1321N1 astrocytoma cells. The class given is cell-based.
Data set [2] has as its target chimeric P2X4(P2X2) receptor c10^R301-Q308 (Homo sapiens, UniProt Q99571, A304N/D302K/DEL301-301/E307T/L303I/N306T/Q308T). As to the kind of experiment: ATP-induced calcium influx assay, chimeric receptor c10 in 1321N1 astrocytoma cells. The note with it: read-out: IC50 ± SEM, P2X4(P2X2) c10^R301-Q308, 1321N1 astrocytoma cells, vs ATP at its EC80. The class given is cell-based.

Sequences of proteins named here, by UniProt entry; tags and fusion partners are left off. A change or cut given only in a name is not applied to a line headed by its entry. A line that says so, or that is headed by a name, gives the form on record, which may keep a tag or linker.
UniProt Q99571, whole entry: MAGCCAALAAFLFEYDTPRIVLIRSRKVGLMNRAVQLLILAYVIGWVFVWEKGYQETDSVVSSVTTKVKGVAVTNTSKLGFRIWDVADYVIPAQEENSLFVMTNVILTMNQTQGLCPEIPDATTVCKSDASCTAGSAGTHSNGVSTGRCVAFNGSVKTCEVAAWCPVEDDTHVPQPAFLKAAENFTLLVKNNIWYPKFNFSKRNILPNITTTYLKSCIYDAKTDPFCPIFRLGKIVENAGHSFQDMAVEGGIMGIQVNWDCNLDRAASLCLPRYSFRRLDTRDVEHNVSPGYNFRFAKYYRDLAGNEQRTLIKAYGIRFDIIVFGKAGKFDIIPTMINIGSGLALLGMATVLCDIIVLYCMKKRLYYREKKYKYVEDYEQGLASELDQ
UniProt Q99571, whole entry E307T: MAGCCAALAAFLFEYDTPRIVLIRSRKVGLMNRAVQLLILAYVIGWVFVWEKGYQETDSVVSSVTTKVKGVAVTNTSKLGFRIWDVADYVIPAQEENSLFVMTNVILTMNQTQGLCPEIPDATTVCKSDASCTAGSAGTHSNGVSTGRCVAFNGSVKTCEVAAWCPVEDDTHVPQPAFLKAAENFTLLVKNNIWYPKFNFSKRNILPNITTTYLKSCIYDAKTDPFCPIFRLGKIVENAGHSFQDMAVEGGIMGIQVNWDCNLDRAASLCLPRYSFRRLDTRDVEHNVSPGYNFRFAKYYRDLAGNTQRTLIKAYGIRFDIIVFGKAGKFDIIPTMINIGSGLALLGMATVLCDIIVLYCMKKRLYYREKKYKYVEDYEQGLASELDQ
UniProt Q99571, with tags, fused parts or gaps A304N/D302K/DEL301-301/E307T/L303I/N306T/Q308T: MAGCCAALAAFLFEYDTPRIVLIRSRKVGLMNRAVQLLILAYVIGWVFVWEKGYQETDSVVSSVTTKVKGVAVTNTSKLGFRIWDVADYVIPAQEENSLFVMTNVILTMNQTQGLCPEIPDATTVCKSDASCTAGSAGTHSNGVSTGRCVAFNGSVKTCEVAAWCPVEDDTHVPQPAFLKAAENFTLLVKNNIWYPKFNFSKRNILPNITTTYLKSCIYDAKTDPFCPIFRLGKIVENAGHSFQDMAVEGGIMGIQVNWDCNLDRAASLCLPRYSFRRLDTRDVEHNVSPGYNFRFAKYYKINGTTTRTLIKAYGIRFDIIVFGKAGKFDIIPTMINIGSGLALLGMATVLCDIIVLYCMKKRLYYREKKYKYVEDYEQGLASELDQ

Data set [3] is described as follows: Physicochemical properties (water solubility, lipophilicity). To be noted: as stated in words; tested form: Na salt.
The mark [4] stands for this setting: read-out: IC50 ± SEM, vs ATP at its EC80, tested form: Na salt.

Each structure is given as a SMILES string. Like-named read-outs stand apart in the source and are kept apart here.

A word on the IC50: it is the concentration that gives 50% inhibition.

Regarding `Cc1cc(Nc2ccc(Nc3ccccc3)cc2)c2c(c1N)C(=O)c1ccccc1C2=O`, the IC50 on human wt P2X4 receptor was greater than 10 µM; in data set [1] (read-out: IC50 ± SEM, vs ATP at its EC80), greater than 10000 nM; in data set [2] it was greater than 10000 nM.

Regarding `Nc1c(S(=O)(=O)O)cc(Nc2ccc(Nc3ccccc3)cc2)c2c1C(=O)c1ccccc1C2=O`, the IC50 on human wt P2X4 receptor (tested form: Na salt) amounted to 1.35 µM; in data set [1] (setting [4]) it was 164 nM; in data set [2] (tested form: Na salt), 92.2 nM. The Water solubility result in data set [3] is listed as “Water-soluble”.

In the case of `Nc1c(S(=O)(=O)O)cc(Nc2ccc(O)cc2)c2c1C(=O)c1ccccc1C2=O`, the IC50 on human wt P2X4 receptor (tested form: Na salt) was 4.33 µM; in data set [1] (setting [4]), 289 nM; in data set [2] (tested form: Na salt) it was 61.9 nM.

On to `O=C1c2ccccc2C(=O)c2c(Nc3ccc(Nc4ccccc4)c(S(=O)(=O)O)c3)cc(S(=O)(=O)O)cc21`, for which the figures for the IC50 (on human wt P2X4 receptor (tested form: Na salt); in data set [1] (setting [4])) were 11.4 µM and 40.4 nM, respectively.

Consider `COc1cccc(Nc2cc(S(=O)(=O)O)c(N)c3c2C(=O)c2ccccc2C3=O)c1`, for which the IC50 came to 3.28 µM at human wt P2X4 receptor (tested form: Na salt), 204 nM in data set [1] (setting [4]) and 44.8 nM in data set [2] (tested form: Na salt).

`Cc1cc(Nc2ccc(Nc3ccccc3)c(S(=O)(=O)O)c2)c2c(c1N)C(=O)c1ccccc1C2=O`: the 50% inhibitory concentration (IC50) came to 25.3 µM on human wt P2X4 receptor (tested form: Na salt), 180 nM in data set [1] (setting [4]) and 42.9 nM in data set [2] (tested form: Na salt).

Take `Cc1cc(C)cc(Nc2cc(S(=O)(=O)O)c(N)c3c2C(=O)c2ccccc2C3=O)c1`: the IC50 turned out to be 20 µM at human wt P2X4 receptor (tested form: Na salt), 195 nM in data set [1] (setting [4]) and 266 nM in data set [2] (tested form: Na salt).

(Values after publication PMC12678798, “Discovery of an allosteric binding site for anthraquinones at the human P2X4 receptor” (Nature Communications, 2025).)
